Measurements: patent US12421238B2, “Selective dihydropyrrolopyrimidine JAK2 inhibitors” (CHENGDU JINRUI FOUNDATION BIOTECH CO., LTD., priority 2019, dated 2025)

Chains of the proteins cited; added tags and fusions are not shown. Lines headed by an entry give the natural chain unless they say otherwise; changes in a name come on top.
UniProt O60674: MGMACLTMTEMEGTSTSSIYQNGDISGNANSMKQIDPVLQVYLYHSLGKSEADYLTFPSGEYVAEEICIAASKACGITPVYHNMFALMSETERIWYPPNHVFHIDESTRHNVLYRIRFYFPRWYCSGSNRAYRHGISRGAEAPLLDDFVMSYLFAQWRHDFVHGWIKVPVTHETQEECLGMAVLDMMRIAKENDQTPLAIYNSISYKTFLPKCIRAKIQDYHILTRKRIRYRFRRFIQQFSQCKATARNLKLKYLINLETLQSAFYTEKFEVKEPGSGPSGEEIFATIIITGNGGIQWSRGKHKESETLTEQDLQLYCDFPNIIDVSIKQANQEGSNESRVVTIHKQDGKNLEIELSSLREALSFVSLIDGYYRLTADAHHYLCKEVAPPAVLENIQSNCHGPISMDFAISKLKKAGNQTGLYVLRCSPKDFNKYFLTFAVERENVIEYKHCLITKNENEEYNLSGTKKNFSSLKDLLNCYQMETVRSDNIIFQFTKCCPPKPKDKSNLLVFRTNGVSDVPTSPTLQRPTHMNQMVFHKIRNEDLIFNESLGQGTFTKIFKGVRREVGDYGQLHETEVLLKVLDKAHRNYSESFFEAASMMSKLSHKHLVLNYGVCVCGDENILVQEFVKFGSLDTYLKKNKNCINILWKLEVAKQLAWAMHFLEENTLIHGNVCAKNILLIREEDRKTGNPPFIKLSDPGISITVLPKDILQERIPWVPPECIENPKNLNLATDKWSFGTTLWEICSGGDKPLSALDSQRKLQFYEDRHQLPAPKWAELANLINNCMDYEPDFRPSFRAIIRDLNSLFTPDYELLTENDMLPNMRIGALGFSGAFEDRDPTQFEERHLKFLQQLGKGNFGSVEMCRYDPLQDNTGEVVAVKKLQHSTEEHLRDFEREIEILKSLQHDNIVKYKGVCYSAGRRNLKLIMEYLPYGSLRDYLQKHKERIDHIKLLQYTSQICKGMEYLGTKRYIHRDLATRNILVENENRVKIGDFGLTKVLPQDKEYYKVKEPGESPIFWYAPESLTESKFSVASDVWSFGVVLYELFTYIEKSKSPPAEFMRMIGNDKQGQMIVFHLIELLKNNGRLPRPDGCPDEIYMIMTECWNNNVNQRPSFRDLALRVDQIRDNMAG

How the values were obtained:
HEL92.1.7 = HEL92.1.7 cell proliferation experiment (Cell Titer-Glo); format: cell-based; conditions: Homo sapiens, HEL 92.1.7; HEL92.1.7 cells, 72 hours
TF-1 = TF-1 cell proliferation experiment (CellTiter Glo); format: cell-based; conditions: Homo sapiens; TF-1 cells, 72 hours; read-out: TF-1 (μM), proliferation inhibition
JAK2 = JAK2 (Homo sapiens, UniProt O60674); assay: Kinase activity test on JAK2 (Caliper EZ Reader conversion rate)

N#CC[C@H](C1CCCC1)n1cc(-c2ncnc3[nH]ccc23)cn1 [Ruxolitinib, reference compound]
IC50 (HEL92.1.7): 1.12 µM
IC50 (TF-1): 0.32 µM

CCS(=O)(=O)N1CC(CC#N)(n2cc(-c3ncnc4[nH]ccc34)cn2)C1 [Baricitinib, reference compound]
IC50 (JAK2): 5.9 nM
